Experimental data reported in PMC6008491, “Discovery of a novel allosteric inhibitor scaffold for polyadenosine-diphosphate-ribose polymerase 14 (PARP14) macrodomain 2” (Bioorganic & Medicinal Chemistry, 2018).

Sequences of proteins named here, by UniProt entry; tags and fusion partners are left off. Residues count along the entry.
UniProt Q460N5, 791-978 limits assumed: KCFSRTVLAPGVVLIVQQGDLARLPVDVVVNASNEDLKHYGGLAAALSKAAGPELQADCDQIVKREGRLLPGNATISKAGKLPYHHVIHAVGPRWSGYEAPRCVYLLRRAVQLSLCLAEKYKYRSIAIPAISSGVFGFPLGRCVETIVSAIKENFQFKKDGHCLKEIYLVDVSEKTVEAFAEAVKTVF
UniProt Q460N5, 1003-1190 limits assumed: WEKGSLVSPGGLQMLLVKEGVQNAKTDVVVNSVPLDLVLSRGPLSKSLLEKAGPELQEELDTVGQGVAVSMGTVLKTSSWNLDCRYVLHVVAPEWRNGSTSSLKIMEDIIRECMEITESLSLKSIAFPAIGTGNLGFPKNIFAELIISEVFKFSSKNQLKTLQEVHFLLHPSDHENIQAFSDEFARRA
UniProt Q460N5, 1216-1387 limits assumed: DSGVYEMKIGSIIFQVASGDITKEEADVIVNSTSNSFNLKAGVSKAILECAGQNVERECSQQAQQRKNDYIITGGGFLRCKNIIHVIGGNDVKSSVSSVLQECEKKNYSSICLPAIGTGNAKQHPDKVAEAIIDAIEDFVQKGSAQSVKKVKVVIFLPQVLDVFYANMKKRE

Legend:
Test in all cases: ITC of macrodomain:ADP-ribose peptide binding
PARP14 MD1 = PARP14 MD1 (Homo sapiens, UniProt Q460N5); settings: read-out: PARP14 MD1/ADP-ribose peptide KD
PARP14 MD2 = PARP14 MD2 (Homo sapiens, UniProt Q460N5); settings: read-out: PARP14 MD2/ADP-ribose peptide KD
PARP14 MD3 = PARP14 MD3 (Homo sapiens, UniProt Q460N5); settings: read-out: PARP14 MD3/ADP-ribose peptide KD

Nc1ncnc2c1ncn2[C@@H]1O[C@H](COP(=O)(O)OP(=O)(O)OC[C@H]2OC(O)[C@H](O)[C@@H]2O)[C@@H](O)[C@H]1O (stereo partly drawn)
Kd (PARP14 MD1): 137 µM | Kd (PARP14 MD2): 6.8 µM | Kd (PARP14 MD3): 15 µM
